Test results taken from ChEMBL document CHEMBL1140798, “Novel thiol-based TACE inhibitors. Part 2: Rational design, synthesis, and SAR of thiol-containing aryl sulfones” (Bioorg Med Chem Lett, 2008).

By UniProt entry, the sequences of proteins in these tests, tags left out. Where a name states a change or a piece, a line headed by the entry shows the natural chain unless it says otherwise.
UniProt P78536: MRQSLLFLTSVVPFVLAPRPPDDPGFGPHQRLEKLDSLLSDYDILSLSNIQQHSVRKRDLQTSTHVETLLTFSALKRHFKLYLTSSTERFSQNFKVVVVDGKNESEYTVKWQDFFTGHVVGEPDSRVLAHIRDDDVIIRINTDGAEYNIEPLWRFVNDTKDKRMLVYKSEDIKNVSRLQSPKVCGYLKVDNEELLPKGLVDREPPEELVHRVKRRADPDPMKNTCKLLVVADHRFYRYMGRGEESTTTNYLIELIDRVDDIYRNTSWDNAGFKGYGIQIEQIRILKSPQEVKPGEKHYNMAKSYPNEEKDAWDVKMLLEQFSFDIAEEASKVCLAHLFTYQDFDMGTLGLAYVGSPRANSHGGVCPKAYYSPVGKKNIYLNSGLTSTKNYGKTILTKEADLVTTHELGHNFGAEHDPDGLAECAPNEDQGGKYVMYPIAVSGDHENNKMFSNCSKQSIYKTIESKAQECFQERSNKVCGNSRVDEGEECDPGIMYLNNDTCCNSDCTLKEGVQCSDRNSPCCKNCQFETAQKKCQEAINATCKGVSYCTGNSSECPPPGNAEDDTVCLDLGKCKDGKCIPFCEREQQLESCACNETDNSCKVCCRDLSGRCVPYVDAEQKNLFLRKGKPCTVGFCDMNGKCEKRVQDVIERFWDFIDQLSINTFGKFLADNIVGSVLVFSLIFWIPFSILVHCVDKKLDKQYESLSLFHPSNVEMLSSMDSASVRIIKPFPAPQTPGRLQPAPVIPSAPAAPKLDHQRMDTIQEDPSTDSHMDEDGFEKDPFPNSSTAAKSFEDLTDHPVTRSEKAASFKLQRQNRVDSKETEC

Molecular target: Disintegrin and metalloproteinase domain-containing protein 17 (Homo sapiens, UniProt P78536)
Assay: Inhibition of TACE

## CC#CCOc1ccc(S(=O)(=O)CCCS)cc1
  Ki: 0.01 µM
